Bioassay records (PubChem BioAssay)
Yeast UUG start-1 – alters start codon recognition fidelity in yeast. S. cerevisiae UUG-firefly luciferase reporter, luminescence/redox ratio. activity score, % at 18.7 µM. 0.13% of 350,000 active. AID 602363;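 active = replicate mean at a twofold rise or more, about +100% in these data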;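 also: firefly luciferase made from a UUG start codon reports start codon fidelity; reporter light over untreated wells divided by growth signal over untreated wells; some hits fall short of that in this replicate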
FGF22 binding-1 – binders of recombinant human FGF22 by thermal shift. hit rate 1.5% among 340,000. SYPRO orange fluorescence; percent of sucrose octasulfate shift, DMSO zero. AID 651658. activity (Tm shift, normalised), % at 9.99 µM;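 active = mean Tm shift, scaled 0 neutral to 100 positive control, at about 1.3% or above, every replicate too, limit read from the data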
ARNT TACC3 PPI – ARNT/TACC3 interaction disruption; hit rate 0.66% among 390,000; inhibition, % at 9.99 µM; Q9Y6A5; AID 623870; AlphaScreen His-ARNT PAS-B/GST-TACC3 binding, luminescence; TACC3 fragment carries E629A point mutation;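 active = mean inhibition of replicates at least 50% and at least half of replicates each reaching 50%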;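 note: 0% = complete ARNT plus TACC3 wells and 100% = ARNT alone without TACC3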
ERp5 inh – blocks human ERp5 reductase activity on insulin. Q15084. ERp5 insulin aggregation, absorbance 650 nm, 90 min. inhibition, % at 9.99 µM. hit rate 0.05% among 350,000;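 active = mean replicate inhibition above about 25%, with every replicate also reaching it, limit read from the data, passing the limit was not always enough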
PDI inh – inhibitors of human protein disulfide isomerase. PDI insulin aggregation turbidity, A650, 90 min. inhibition, % at 10 µM. hit rate 0.052% among 350,000;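 active = mean inhibition across replicates of 30% or more, whatever share of single replicates reach that level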
PglD inh – PglD (C. jejuni) enzyme inhibition. purified PglD enzyme, DTNB colorimetric CoA detection. inhibition, % at 12.5 µM. hit rate 0.098% among 360,000. AID 602405; in the data active = inhibition above about 16%, passing the limit was not always enough
Yeast UUG start-2 – modulators of start codon recognition fidelity in yeast. AID 652061. shares compounds with Yeast UUG start-1. 540 tested, under 10 active. S. cerevisiae UUG-start firefly luciferase, luminescence, 4 h; 100% means double the DMSO signal. activation, % at 38 µM;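 active = signal increase whose fitted curve reaches an absolute level of 40 at a concentration under 10 µM; inactive = activity opposite to the expected increase, or the rest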
PglD inh SP – PglD (C. jejuni) inhibition confirmation; shares compounds with PglD inh; 320 tested, under 10 active; Purified C. jejuni PglD, DTNB absorbance 412 nm; inhibition, % at 20 µM; AID 743156;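 active = mean inhibition across replicates of at least 20% with every single replicate also at 20% or more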;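 note: initial rate of CoA release by acetyl transfer from AcCoA to the UDP-4-amino sugar; 0% = median of neutral control wells and 100% = median of positive control wells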
ARNT Alpha ctr – interferes with AlphaScreen signal, flagging false ARNT-TACC3 hits; AID 651705; hit rate 50% among 1,200; His-ARNT PASB-GST AlphaScreen artifact counter-screen, luminescence; AC50, µM (top dose mostly 68 µM), for inactives: at the highest dose activity change, negative = signal decrease; shares compounds with ARNT TACC3 PPI;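 active = every separate test run was called active for a drop in luminescence, with AC50 within twice the top valid dose, actives reach about 71 µM in these data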
FGF22 binding-2 – binders of human FGF22 by thermal shift | recombinant FGF22 thermal shift, SYPRO orange fluorescence | thermal shift activity, °C (ΔTm) at 38 µM | shares compounds with FGF22 binding-1 | AID 720646 | hit rate 2% among 1,000;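 active = fitted rise in melting shift crosses a set limit at or below the top valid dose tested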
SYPRO no-protein – compound-only SYPRO artifact for FGF22 binders; hit rate 2% among 1,000; compound-only SYPRO orange thermal shift counter-screen, no protein; AID 743019; AC50, µM (doses to about 38 µM); shares compounds with FGF22 binding-1;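 active = rising signal whose fitted curve reaches the 0.54 level within the top valid dose, showing a melting point, actives reach about 13 µM in these data; inactive = the rest, including activity in the opposite direction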; note: value is where the raw curve crosses a fixed level and not half-maximal
The depositor's hits bear a star; i = inactive; · = no result given; [ ] = another dose, or the depositor's remark. In the library only some 1.9% were active in any assay of this set; here they are far more common.

SMILES	Yeast UUG start-1	FGF22 binding-1	ARNT TACC3 PPI	ERp5 inh	PDI inh	PglD inh	Yeast UUG start-2	others
O=C(C[C@H]1CC[C@H]2[C@@H](COC[C@@H](O)CN2Cc2nccs2)O1)NCc1ccccc1F	7	0	3	6	·	-2	·
CCc1c(O)c(/C(C)=N\O)c(=O)n(-c2ccccc2)c1-c1ccccc1	-13	·	·	·	-2	1	·
C=CCO/N=C(/C)c1c(O)c(CC)c(-c2ccccc2)n(-c2ccccc2)c1=O	280*	·	22	·	-7	1	-4
Cc1ccc(S(=O)(=O)N(C)C[C@@H]2Oc3ncc(-c4ccncc4)cc3C(=O)N([C@@H](C)CO)C[C@H]2C)cc1	200*	0	-3	22	·	0	i
C[C@@H]1CN([C@H](C)CO)C(=O)c2cc(C#CC3CCCCC3)cnc2O[C@H]1CN(C)S(=O)(=O)c1ccc(F)cc1	-16	0	1	4	·	-1	·
C/C=C/c1cnc2c(c1)C(=O)N([C@H](C)CO)C[C@H](C)[C@H](CN(C)S(=O)(=O)c1ccc(F)cc1)O2	130*	0	0	8	·	0	i
C/C=C/c1cnc2c(c1)C(=O)N([C@@H](C)CO)C[C@@H](C)[C@@H](CN(C)S(=O)(=O)c1ccc(F)cc1)O2	76	0	-4	-9	·	1	·
C[C@@H]1CN([C@@H](C)CO)C(=O)c2cc(C#CC3CCCCC3)cnc2O[C@H]1CN(C)S(=O)(=O)c1ccc(F)cc1	119*	0	3	10	·	3	i
COc1ccc(S(=O)(=O)Nc2ccc3c(c2)C(=O)N([C@@H](C)CO)C[C@@H](C)[C@@H](CN(C)S(=O)(=O)c2c(C)noc2C)OCCCC[C@@H](C)O3)cc1	-12	0	10	10	·	-2	·
O=C(C[C@H]1CC[C@@H](NC(=O)c2cccnc2)[C@@H](CO)O1)NCCN1CCCCC1	-2	0	0	0	·	-2	·
COc1cccc(Oc2nc3ncn(Cc4ccccc4)c3c(=O)n2C)c1	113*	·	-2	·	-7	-4	13
COc1ccc2oc(C(=O)OCC(=O)c3ccc4c(c3)OCCO4)c(C)c2c1	668*	·	25	·	-4	2	16
CC(C)C#Cc1ccc2c(c1)O[C@@H](CN(C)C(=O)NC(C)C)[C@@H](C)CN([C@@H](C)CO)S2(=O)=O	10	0	15	·	·	4	·
CCN(CC)CCNC(=O)Cn1nc(Cc2ccncc2)c2ccccc2c1=O	-4	0	4	1	3	1	·
CCN(CC)CCNC(=O)Cc1nn(Cc2ccccc2)c(=O)c2ccccc12	-18	0	2	4	-1	-4	-8
Cc1sc2nc(CN3CCOCC3)nc(N3CCC(C(N)=O)CC3)c2c1C	286*	·	-10	·	-1	1	-8
CCCC#Cc1cnc2c(c1)C(=O)N([C@H](C)CO)C[C@H](C)[C@H](CN(C)C(=O)Nc1c(C)noc1C)O2	8	0	-3	2	·	4	·
CO[C@H]1CN(C)C(=O)c2cc(NC(=O)C3CCC3)ccc2OC[C@@H](C)N(Cc2cccnc2)C[C@H]1C	2	0	-13	2	·	-1	·
COc1ccc(Cl)cc1NC(=O)CSc1nc2[nH]ncc2c(=O)[nH]1	109*	0	·	-3	-24	0	4
CC(C)CC#Cc1cnc2c(c1)C(=O)N([C@H](C)CO)C[C@H](C)[C@@H](CN(C)C(=O)CC1CC1)O2	147*	0	-3	8	·	-5	i
CCCC#Cc1cnc2c(c1)C(=O)N([C@H](C)CO)C[C@H](C)[C@@H](CN(C)C(=O)CCN1CCCCC1)O2	166*	0	4	0	1	-1	4
C[C@@H]1CN([C@@H](C)CO)C(=O)c2cc(C#Cc3ccccc3F)cnc2O[C@@H]1CN(C)C(=O)Cc1cccnc1	153*	0	1	0	·	-3	i
C[C@@H]1CN([C@H](C)CO)C(=O)c2cc(C#Cc3ccccc3F)cnc2O[C@H]1CN(C)C(=O)Cc1cccnc1	-7	0	-2	3	·	7	·
C[C@@H]1CN([C@@H](C)CO)C(=O)c2cc(C#CCN(C)C)cnc2O[C@@H]1CN(C)C(=O)Cc1ccccc1	176*	0	8	0	·	2	i
C[C@@H]1CN([C@@H](C)CO)C(=O)c2cc(C#CCN(C)C)cnc2O[C@H]1CN(C)C(=O)Cc1ccccc1	·	·	·	8	·	3	·

5 records picked at random from those above, as already listed:
SMILES	Yeast UUG start-1	FGF22 binding-1	ARNT TACC3 PPI	ERp5 inh	PDI inh	PglD inh	Yeast UUG start-2	others
CCN(CC)CCNC(=O)Cc1nn(Cc2ccccc2)c(=O)c2ccccc12	-18	0	2	4	-1	-4	-8
O=C(C[C@H]1CC[C@H]2[C@@H](COC[C@@H](O)CN2Cc2nccs2)O1)NCc1ccccc1F	7	0	3	6	·	-2	·
C/C=C/c1cnc2c(c1)C(=O)N([C@@H](C)CO)C[C@@H](C)[C@@H](CN(C)S(=O)(=O)c1ccc(F)cc1)O2	76	0	-4	-9	·	1	·
C[C@@H]1CN([C@H](C)CO)C(=O)c2cc(C#CC3CCCCC3)cnc2O[C@H]1CN(C)S(=O)(=O)c1ccc(F)cc1	-16	0	1	4	·	-1	·
CO[C@H]1CN(C)C(=O)c2cc(NC(=O)C3CCC3)ccc2OC[C@@H](C)N(Cc2cccnc2)C[C@H]1C	2	0	-13	2	·	-1	·

Other results
SMILES	Yeast UUG start-1	FGF22 binding-1	ARNT TACC3 PPI	ERp5 inh	PDI inh	PglD inh	Yeast UUG start-2	others
O=S(=O)(Nc1cccc(-c2cn3cccnc3n2)c1)c1ccc(-c2ccccc2)cc1	545*	·	18	·	2	-7	3
COCC(=O)N(C)C[C@@H]1Oc2cc(-c3cccnc3)ccc2S(=O)(=O)N([C@@H](C)CO)C[C@@H]1C	-10	0	-7	3	·	0	·
COc1cc(NC(=O)Cc2nn(C)c(=O)c3ccccc23)cc(OC)c1	-9	·	1	·	3	21*	4	PglD inh SP=-5
O=C(NCc1ccccn1)[C@@H]1[C@@H](CO)[C@@H]2Cn3c(ccc(C4=CCCC4)c3=O)[C@H]1N2Cc1cccnc1	·	0	9	-4	·	0	·
O=C(NCc1ccccn1)c1c(-c2ccccc2)sc2ccccc12	62*	0	59*	4	2	-1	4	ARNT Alpha ctr=-17%
CC(=O)N(C)C[C@@H]1Oc2cc(C#Cc3cccnc3)ccc2S(=O)(=O)N([C@@H](C)CO)C[C@@H]1C	9	0	-6	-9	·	0	·
Cc1ccc(S(=O)(=O)N(C)C[C@H]2Oc3ncc(Br)cc3C(=O)N([C@@H](C)CO)C[C@H]2C)cc1	108*	5.3*	0	5	·	-33	i	FGF22 binding-2=0.11[42 µM];SYPRO no-protein=i
O=C(NCC[C@H]1CC[C@@H](NS(=O)(=O)c2ccc(Cl)cc2)[C@@H](CO)O1)c1ccccc1F	4	0	·	3	·	1	·
